Positions of bridges follow the written chain, without caps; N, C: chain ends. Non-standard residues stand in square brackets, D forms with d. Residues, ends and D or L forms follow the SMILES beside them. S5 = C=CCCC[C@](C)(N)C(=O)O

We go through two molecules from publication PMC12559223, “Structural basis of apoptosis induction by the mitochondrial voltage-dependent anion channel” (Nature Communications, 2025).

For one assay, the system named is BakΔTM. As to the kind of experiment: Liposome pore-forming assay, direct activation of Bak without BclxL. The assay is classed as biochemical. As to the method: The liposome permeabilization assays were performed at 30 °C on a SpectraMax iD5 multimode plate reader (Molecular Devices) controlled by the SoftMax Pro 7 software as previously described[66],[91]. Briefly, 40–50 nM cBid, 50 nM BclxLΔTM, and 1–100 µM VDAC-N peptides were used for measurements at low BakΔTM concentrations (50–200 nM), whereas 1 µM BakΔTM and 500 nM BclxLΔTM were used for measurements under auto-active BakΔTM conditions. VDAC1-N peptide was titrated into the Bak-BclxL complex from 10 to 100 µM under cBid-activated conditions and from 25 to 100 µM under auto-active BakΔTM conditions. For comparison of VDAC1-N WT peptide to VDAC1-N L10A (refer to Supplementary Table 4 for peptide sequences), 100 µM of either VDAC1-N peptide was added into the Bak-BclxL complex under cBid-activated conditions. […] For this experiment, Bad-BH3 peptide was titrated into the Bak-BclxL complex from 1 to 100 nM under cBid-activated conditions. The liposomes were prepared with the following lipid composition (mass percentage) to mimic the outer mitochondrial membrane (OMM), as previously described. Briefly, the OMM-like lipids were prepared by combining 38% L-α-phosphatidylcholine (PC), 25% L-α-phosphatidylethanolamine (PE), 10% L-α-phosphatidylinositol (PI), 10% 1,2-dioleyl-sn-glycero-3-phospho-L-serine (DOPS), 7% 1,1′,2,2′-tetra-(9Z-octadecenoyl)cardiolipin, and 10% 18:1 DGS-NTA (Ni^2+). For the liposome permeabilization assay at low BakΔTM concentrations (50–200 nM), 2–5% 18:1 DGS-NTA (Ni^2+) was used, and the mass of PC was adjusted to compensate. The lipids (5 mg) were mixed in chloroform and dried under nitrogen gas flow, resuspended in 0.25 mL of assay buffer (10 mM HEPES, pH 7.0, 200 mM KCl, 5 mM MgCl2), sonicated in a sonication bath until homogenous, subjected to five freeze-thaw cycles, then extruded using a 100 nm polycarbonate membrane. The liposomes were prepared with the addition of the polyanionic dye 8-aminoaphthalene-1,3,6-trisulfonic acid (ANTS) and the cationic quencher p-xylene-bis-pyridinium bromide (DPX) as described[66],[91]. For experiments at low BakΔTM concentrations (50–200 nM), 0.05–0.15 mg/mL OMM-like lipids doped with 2–5% (w/w) 18:1 DGS-NTA (Ni^2+) were used. For experiments under BakΔTM auto-active conditions, 0.3 mg/mL OMM-like lipids doped with 10% (w/w) 18:1 DGS-NTA (Ni^2+) were used. All resulting data were averaged from three technical replicates unless a clear outlier due to experimental artifact was removed. Data analysis was performed by first normalizing to the minimum value in each dataset, then calculating the mean for the technical replicates. […] The data are represented as relative ANTS fluorescence (%).

In assay [1] the test system is Bak-BclxL complex. Briefly: Liposome permeabilization (pore-forming) assay, cBid-activated Bak inhibited by BclxL. In kind it is biochemical, human.
The test system of assay [2] is Bak-BclxL complex. As to the kind of experiment: Liposome permeabilization (pore-forming) assay, auto-active BakΔTM conditions, inhibited by BclxL. The assay is classed as biochemical, human. The procedure: The liposome permeabilization assays were performed at 30 °C on a SpectraMax iD5 multimode plate reader (Molecular Devices) controlled by the SoftMax Pro 7 software as previously described[66],[91]. Briefly, 40–50 nM cBid, 50 nM BclxLΔTM, and 1–100 µM VDAC-N peptides were used for measurements at low BakΔTM concentrations (50–200 nM), whereas 1 µM BakΔTM and 500 nM BclxLΔTM were used for measurements under auto-active BakΔTM conditions. VDAC1-N peptide was titrated into the Bak-BclxL complex from 10 to 100 µM under cBid-activated conditions and from 25 to 100 µM under auto-active BakΔTM conditions. For comparison of VDAC1-N WT peptide to VDAC1-N L10A (refer to Supplementary Table 4 for peptide sequences), 100 µM of either VDAC1-N peptide was added into the Bak-BclxL complex under cBid-activated conditions. […] For this experiment, Bad-BH3 peptide was titrated into the Bak-BclxL complex from 1 to 100 nM under cBid-activated conditions. The liposomes were prepared with the following lipid composition (mass percentage) to mimic the outer mitochondrial membrane (OMM), as previously described. Briefly, the OMM-like lipids were prepared by combining 38% L-α-phosphatidylcholine (PC), 25% L-α-phosphatidylethanolamine (PE), 10% L-α-phosphatidylinositol (PI), 10% 1,2-dioleyl-sn-glycero-3-phospho-L-serine (DOPS), 7% 1,1′,2,2′-tetra-(9Z-octadecenoyl)cardiolipin, and 10% 18:1 DGS-NTA (Ni^2+). For the liposome permeabilization assay at low BakΔTM concentrations (50–200 nM), 2–5% 18:1 DGS-NTA (Ni^2+) was used, and the mass of PC was adjusted to compensate. The lipids (5 mg) were mixed in chloroform and dried under nitrogen gas flow, resuspended in 0.25 mL of assay buffer (10 mM HEPES, pH 7.0, 200 mM KCl, 5 mM MgCl2), sonicated in a sonication bath until homogenous, subjected to five freeze-thaw cycles, then extruded using a 100 nm polycarbonate membrane. The liposomes were prepared with the addition of the polyanionic dye 8-aminoaphthalene-1,3,6-trisulfonic acid (ANTS) and the cationic quencher p-xylene-bis-pyridinium bromide (DPX) as described[66],[91]. For experiments at low BakΔTM concentrations (50–200 nM), 0.05–0.15 mg/mL OMM-like lipids doped with 2–5% (w/w) 18:1 DGS-NTA (Ni^2+) were used. For experiments under BakΔTM auto-active conditions, 0.3 mg/mL OMM-like lipids doped with 10% (w/w) 18:1 DGS-NTA (Ni^2+) were used. All resulting data were averaged from three technical replicates unless a clear outlier due to experimental artifact was removed. Data analysis was performed by first normalizing to the minimum value in each dataset, then calculating the mean for the technical replicates. The data represented in each of the figures was scaled such that 0 represents the BakΔTM-BclxLΔTM complex and 1 represents either auto-activated BakΔTM or cBid-activated BakΔTM. The data are represented as relative ANTS fluorescence (%).

In the case of `CSCC[C@H](N)C(=O)N[C@@H](C)C(=O)N[C@H](C(=O)N1CCC[C@H]1C(=O)N1CCC[C@H]1C(=O)N[C@H](C(=O)N[C@@H](Cc1ccc(O)cc1)C(=O)N[C@@H](C)C(=O)N[C@@H](CC(=O)O)C(=O)N[C@@H](CC(C)C)C(=O)NCC(=O)N[C@@H](CCCCN)C(=O)N[C@@H](CO)C(=O)N[C@@H](C)C(=O)N[C@@H](CCCNC(=N)N)C(=O)N[C@@H](CC(=O)O)C(=O)N[C@H](C(=O)N[C@@H](Cc1ccccc1)C(=O)N[C@H](C(=O)N[C@@H](CCCCN)C(=O)NCC(=O)N[C@@H](Cc1ccc(O)cc1)C(=O)NCC(=O)N[C@@H](Cc1ccccc1)C(=O)O)[C@@H](C)O)C(C)C)[C@@H](C)O)C(C)C` [VDAC1-N], the “direct activation of Bak pore formation (in words)” value in the assay with BakΔTM (linear peptide 1 mM, Bak 50 nM) is recorded as “do not directly activate Bak”; with BakΔTM (peptide 70 µM, Bak 50 nM), “does not lead to Bak activation”.
Take `CC(C)C[C@H](NC(=O)[C@H](CC(=O)O)NC(=O)[C@H](C)NC(=O)[C@@H](N)Cc1ccc(O)cc1)C(=O)N[C@@]1(C)CCCC=CCCC[C@@](C)(C(=O)N[C@@H](CC(=O)O)C(=O)N[C@H](C(=O)N[C@@H](Cc2ccccc2)C(=O)N[C@H](C(=O)N[C@@H](CCCCN)C(=O)NCC(=O)O)[C@@H](C)O)C(C)C)NC(=O)[C@H](C)NC(=O)[C@H](CO)NC(=O)[C@H](CCCCN)NC1=O` [stVDAC1-N] (H-YADL[S5]KSA[S5]DVFTKG-OH; staple 5-9; N-terminus and C-terminus assumed): the “relative ANTS fluorescence (Bak pore formation)” value was 0.09107 in the assay with Bak-BclxL complex [1] (as E12, stVDAC1-N 10 µM, replicate 1); -0.01668 with Bak-BclxL complex [1] (as E12, stVDAC1-N 10 µM, replicate 2); 0.4925 with Bak-BclxL complex [1] (as E12 but stVDAC1-N 25 µM (row VDAC25), mean of n = 3 technical replicates); 0.4653 in the assay on Bak-BclxL complex [1] (as E12 but stVDAC1-N 25 µM, replicate 1); 0.51 in the assay with Bak-BclxL complex [1] (as E12 but stVDAC1-N 25 µM, replicate 2); 0.5021 with Bak-BclxL complex [1] (as E12 but stVDAC1-N 25 µM, replicate 3). Besides, the “relative ANTS fluorescence (Bak pore formation)” value stood at 0.571 in the assay on Bak-BclxL complex [1] (as E12 but stVDAC1-N 50 µM (row VDAC50), mean of n = 3 technical replicates); 0.5785 in the assay on Bak-BclxL complex [1] (as E12 but stVDAC1-N 50 µM, replicate 1); 0.6003 in the assay on Bak-BclxL complex [1] (as E12 but stVDAC1-N 50 µM, replicate 2); 0.534 in the assay with Bak-BclxL complex [1] (as E12 but stVDAC1-N 50 µM, replicate 3); 0.9595 in the assay with Bak-BclxL complex [1] (as E12 but stVDAC1-N 75 µM (row VDAC75), mean of n = 3 technical replicates); 0.889 in the assay on Bak-BclxL complex [1] (as E12 but stVDAC1-N 75 µM, replicate 1). Also, the “relative ANTS fluorescence (Bak pore formation)” value in the assay with Bak-BclxL complex [1] (as E12 but stVDAC1-N 75 µM, replicate 2) was 0.9981; in the assay with Bak-BclxL complex [1] (as E12 but stVDAC1-N 75 µM, replicate 3), 0.9914; with Bak-BclxL complex [1] (as E12 but stVDAC1-N 100 µM (row VDAC100), mean of n = 3 technical replicates), 0.9103; in the assay with Bak-BclxL complex [1] (as E12 but stVDAC1-N 100 µM, replicate 1), 0.8985; with Bak-BclxL complex [1] (as E12 but stVDAC1-N 100 µM, replicate 2), 0.9408; in the assay with Bak-BclxL complex [1] (as E12 but stVDAC1-N 100 µM, replicate 3), 0.8916. Also, the “relative ANTS fluorescence (Bak pore formation)” value in the assay on Bak-BclxL complex [1] (stVDAC1-N 10 µM (row VDAC10), 50 nM BakΔTM, 40 nM cBid, 50 nM BclxLΔTM, 30 °C, averaged 3500-4000 s, scaled 0 = Bak-BclxL complex, 1 = cBid-activated Bak, mean of technical replicates) turned out to be 0.0372. Moreover, the “relative ANTS fluorescence (Bak pore formation), scaled to max” value (“relative ANTS fluorescence … to max” below) was -0.0292 in the assay on Bak-BclxL complex [2] (as E35, stVDAC1-N 25 µM, replicate 1); 0.04874 with Bak-BclxL complex [2] (as E35, stVDAC1-N 25 µM, replicate 2); 0.3276 in the assay with Bak-BclxL complex [2] (as E35 but stVDAC1-N 50 µM (row Mix50), mean of technical replicates); 0.2297 in the assay on Bak-BclxL complex [2] (as E35 but stVDAC1-N 50 µM, replicate 1); 0.2994 in the assay on Bak-BclxL complex [2] (as E35 but stVDAC1-N 50 µM, replicate 2); 0.4536 with Bak-BclxL complex [2] (as E35 but stVDAC1-N 50 µM, replicate 3). The “relative ANTS fluorescence … to max” value with Bak-BclxL complex [2] (as E35 but stVDAC1-N 75 µM (row Mix75), mean of technical replicates) is 0.532; in the assay with Bak-BclxL complex [2] (as E35 but stVDAC1-N 75 µM, replicate 1), 0.33; in the assay on Bak-BclxL complex [2] (as E35 but stVDAC1-N 75 µM, replicate 2), 0.4526; with Bak-BclxL complex [2] (as E35 but stVDAC1-N 75 µM, replicate 3) it was 0.8134; in the assay on Bak-BclxL complex [2] (as E35 but stVDAC1-N 100 µM (row Mix100), mean of technical replicates), 0.7453; with Bak-BclxL complex [2] (as E35 but stVDAC1-N 100 µM, replicate 1), 0.6966. Moreover, the “relative ANTS fluorescence … to max” value with Bak-BclxL complex [2] (as E35 but stVDAC1-N 100 µM, replicate 2) amounted to 0.663; in the assay on Bak-BclxL complex [2] (as E35 but stVDAC1-N 100 µM, replicate 3), 0.8764; in the assay with Bak-BclxL complex [2] (stVDAC1-N 25 µM (row Mix25), 1 µM BakΔTM (auto-active), 500 nM BclxLΔTM, 30 °C, averaged 4000-5000 s, scaled 0 = Bak-BclxL, 1 = auto-activated Bak, mean of at least two technical replicates), 0.009771. Also, the “effect on pore-forming activity of BclxL-inhibited Bak (in words)” value with Bak-BclxL complex [2] (autoactivation conditions: 1 µM BakΔTM, 500 nM BclxLΔTM, peptide 25-100 µM) is reported as “concentration-dependent increase in the pore-forming activity of Bak”. The “direct activation of Bak pore formation (in words)” value with BakΔTM (peptide 40 µM, BakΔTM 50 nM, no BclxL, no cBid) was “cannot directly activate pore formation of Bak”; with BakΔTM (stapled peptide 100 µM, Bak 50 nM), “do not directly activate Bak”.
